Biological target: T1, Phosphatidylinositol 4,5-bisphosphate 3-kinase catalytic subunit delta isoform (Homo sapiens, UniProt O00329)
T1 sequence (O00329 whole entry): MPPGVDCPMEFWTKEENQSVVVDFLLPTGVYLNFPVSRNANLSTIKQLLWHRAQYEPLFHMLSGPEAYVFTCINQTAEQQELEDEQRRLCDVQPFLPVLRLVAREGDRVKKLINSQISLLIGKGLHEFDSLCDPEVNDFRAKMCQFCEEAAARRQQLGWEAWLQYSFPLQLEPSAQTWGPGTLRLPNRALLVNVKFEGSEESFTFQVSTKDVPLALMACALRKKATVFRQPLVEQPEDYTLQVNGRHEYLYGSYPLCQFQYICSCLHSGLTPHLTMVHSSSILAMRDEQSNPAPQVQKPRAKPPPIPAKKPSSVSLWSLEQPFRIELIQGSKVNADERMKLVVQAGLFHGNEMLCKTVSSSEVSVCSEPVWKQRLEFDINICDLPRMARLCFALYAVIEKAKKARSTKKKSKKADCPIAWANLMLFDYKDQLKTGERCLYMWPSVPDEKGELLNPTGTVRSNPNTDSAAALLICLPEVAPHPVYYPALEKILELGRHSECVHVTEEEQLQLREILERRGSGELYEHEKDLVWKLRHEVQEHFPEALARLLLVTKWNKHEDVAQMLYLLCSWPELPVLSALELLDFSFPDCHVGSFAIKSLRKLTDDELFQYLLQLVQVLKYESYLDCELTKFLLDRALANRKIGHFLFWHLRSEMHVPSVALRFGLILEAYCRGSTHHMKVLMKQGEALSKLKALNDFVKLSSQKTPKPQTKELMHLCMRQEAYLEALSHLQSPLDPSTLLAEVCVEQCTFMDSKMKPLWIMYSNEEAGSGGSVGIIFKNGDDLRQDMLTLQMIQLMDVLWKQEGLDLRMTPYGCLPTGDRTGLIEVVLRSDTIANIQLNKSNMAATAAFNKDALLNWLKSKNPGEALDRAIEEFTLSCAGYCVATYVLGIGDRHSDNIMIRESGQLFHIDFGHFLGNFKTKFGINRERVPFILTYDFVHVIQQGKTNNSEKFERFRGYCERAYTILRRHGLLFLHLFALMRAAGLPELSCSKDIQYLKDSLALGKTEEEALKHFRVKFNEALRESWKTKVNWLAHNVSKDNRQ
Test: PI3Kδ (p110δ/p85α) Recombinant Human Protein was purchased from Eurofins (St Charles, Mo.). […] The final concentration of DMSO in the assay was 2%. […] ATP, 3.4 nM PI3Kδ. […] The final concentration of SPA beads is 1.0 mg/mL.

- IC50: < 100 nM
SMILES: Cc1csc2nc([C@H](C)Nc3ncnc4[nH]cnc34)c(-c3cccc(F)c3)c(=O)n12 [DEZAPELISIB]

Source: ChEMBL document CHEMBL5725589, “Heterocyclic compounds as PI3K-γ inhibitors” (2018)
